Membrane permeability of cyclic peptides

Data: CycPeptMPDB; original report Kelly et al. 2021, doi:10.1021/jacs.0c06115.

PAMPA measures passive passage through an artificial lipid membrane. Permeability is in 10^-6 cm/s, converted from the database's log10 values; higher is more permeable.

CC(=O)N1CCC[C@H]1C(=O)N[C@@H]1C(=O)N[C@H](CC(C)C)C(=O)N(C)[C@@H](CC(C)C)C(=O)N(C)[C@@H](CC(C)C)C(=O)N(C)[C@H](CC(C)C)C(=O)N(C)[C@@H](C)C(=O)N[C@@H](CC(C)C)C(=O)N2CCC[C@@H]2C(=O)O[C@@H]1C is reported with PAMPA 7.6 × 10^-6 cm/s. CC(=O)N1CCC[C@H]1C(=O)N[C@@H]1C(=O)N[C@H](CC(C)C)C(=O)N(C)[C@@H](CC(C)C)C(=O)N(C)[C@@H](CC(C)C)C(=O)N(C)[C@@H](CC(C)C)C(=O)N[C@@H](C)C(=O)N[C@@H](CC(C)C)C(=O)N2CCC[C@@H]2C(=O)O[C@@H]1C has PAMPA 7.8 × 10^-6 cm/s. Listed for CC(=O)N1CCC[C@H]1C(=O)N(C)[C@@H](CC(C)C)C(=O)N[C@@H]1C(=O)N[C@@H](CC(C)C)C(=O)N(C)[C@H](CC(C)C)C(=O)N(C)[C@@H](CC(C)C)C(=O)N(C)[C@@H](C)C(=O)N[C@H](CC(C)C)C(=O)N2CCC[C@H]2C(=O)O[C@@H]1C: PAMPA 2.6 × 10^-6 cm/s. CC(=O)N1CCC[C@H]1C(=O)N[C@@H]1C(=O)N(C)[C@H](CC(C)C)C(=O)N(C)[C@@H](CC(C)C)C(=O)N(C)[C@@H](CC(C)C)C(=O)N(C)[C@H](CC(C)C)C(=O)N(C)[C@H](C)C(=O)N[C@@H](CC(C)C)C(=O)N2CCC[C@@H]2C(=O)O[C@@H]1C is reported with PAMPA 6 × 10^-6 cm/s. CC(=O)N[C@@H]1C(=O)N2CCC[C@H]2C(=O)N(C)[C@H](CC(C)C)C(=O)N[C@H](CC(C)C)C(=O)N[C@@H](CC(C)C)C(=O)N[C@H](CC(C)C)C(=O)N(C)[C@H](C)C(=O)N[C@@H](CC(C)C)C(=O)N2CCC[C@@H]2C(=O)O[C@@H]1C is reported with PAMPA 0.23 × 10^-6 cm/s. CC(=O)N1CCC[C@H]1C(=O)N(C)[C@@H](CC(C)C)C(=O)N[C@@H]1C(=O)N[C@H](CC(C)C)C(=O)N[C@H](CC(C)C)C(=O)N(C)[C@H](CC(C)C)C(=O)N[C@H](C)C(=O)N[C@H](CC(C)C)C(=O)N2CCC[C@@H]2C(=O)O[C@@H]1C has PAMPA 0.14 × 10^-6 cm/s. CC(=O)N1CCC[C@@H]1C(=O)N(C)[C@@H](CC(C)C)C(=O)N[C@@H]1C(=O)N(C)[C@H](CC(C)C)C(=O)N(C)[C@H](CC(C)C)C(=O)N(C)[C@@H](CC(C)C)C(=O)N(C)[C@@H](C)C(=O)N[C@@H](CC(C)C)C(=O)N2CCC[C@H]2C(=O)O[C@@H]1C has PAMPA 5.4 × 10^-6 cm/s. Listed for CC(=O)N1CCC[C@H]1C(=O)N(C)[C@@H](CC(C)C)C(=O)N[C@@H]1C(=O)N[C@H](CC(C)C)C(=O)N[C@H](CC(C)C)C(=O)N[C@H](CC(C)C)C(=O)N(C)[C@H](C)C(=O)N[C@H](CC(C)C)C(=O)N2CCC[C@@H]2C(=O)O[C@@H]1C: PAMPA 0.13 × 10^-6 cm/s.

CC(=O)N1CCC[C@H]1C(=O)N[C@@H]1C(=O)N[C@H](CC(C)C)C(=O)N(C)[C@H](CC(C)C)C(=O)N(C)[C@@H](CC(C)C)C(=O)N(C)[C@H](CC(C)C)C(=O)N[C@H](C)C(=O)N[C@@H](CC(C)C)C(=O)N2CCC[C@@H]2C(=O)O[C@@H]1C is reported with PAMPA 6.2 × 10^-6 cm/s. CC(=O)N1CCC[C@H]1C(=O)N[C@@H]1C(=O)N[C@H](CC(C)C)C(=O)N(C)[C@H](CC(C)C)C(=O)N(C)[C@H](CC(C)C)C(=O)N(C)[C@H](CC(C)C)C(=O)N[C@H](C)C(=O)N[C@@H](CC(C)C)C(=O)N2CCC[C@@H]2C(=O)O[C@@H]1C has PAMPA 4.4 × 10^-6 cm/s. For CC(=O)N1CCC[C@H]1C(=O)N(C)[C@H](CC(C)C)C(=O)N[C@@H]1C(=O)N(C)[C@@H](CC(C)C)C(=O)N(C)[C@H](CC(C)C)C(=O)N(C)[C@@H](CC(C)C)C(=O)N(C)[C@@H](C)C(=O)N[C@H](CC(C)C)C(=O)N2CCC[C@H]2C(=O)O[C@@H]1C the data give PAMPA 6.6 × 10^-6 cm/s. For CC(=O)N1CCC[C@H]1C(=O)N[C@@H]1C(=O)N[C@H](CC(C)C)C(=O)N[C@@H](CC(C)C)C(=O)N[C@@H](CC(C)C)C(=O)N[C@@H](CC(C)C)C(=O)N[C@@H](C)C(=O)N[C@@H](CC(C)C)C(=O)N2CCC[C@@H]2C(=O)O[C@@H]1C the data give PAMPA 0.47 × 10^-6 cm/s. CC(=O)N1CCC[C@H]1C(=O)N(C)[C@@H](CC(C)C)C(=O)N[C@@H]1C(=O)N[C@H](CC(C)C)C(=O)N(C)[C@@H](CC(C)C)C(=O)N(C)[C@@H](CC(C)C)C(=O)N[C@@H](C)C(=O)N[C@H](CC(C)C)C(=O)N2CCC[C@H]2C(=O)O[C@@H]1C is reported with PAMPA 4.3 × 10^-6 cm/s. For CC(=O)N1CCC[C@@H]1C(=O)N(C)[C@@H](CC(C)C)C(=O)N[C@@H]1C(=O)N(C)[C@@H](CC(C)C)C(=O)N(C)[C@H](CC(C)C)C(=O)N[C@@H](CC(C)C)C(=O)N(C)[C@H](C)C(=O)N[C@H](CC(C)C)C(=O)N2CCC[C@H]2C(=O)O[C@@H]1C the data give PAMPA 2.8 × 10^-6 cm/s. Listed for CC(=O)N1CCC[C@@H]1C(=O)N(C)[C@@H](CC(C)C)C(=O)N[C@@H]1C(=O)N(C)[C@H](CC(C)C)C(=O)N[C@@H](CC(C)C)C(=O)N(C)[C@H](CC(C)C)C(=O)N(C)[C@H](C)C(=O)N[C@@H](CC(C)C)C(=O)N2CCC[C@H]2C(=O)O[C@@H]1C: PAMPA 4.9 × 10^-6 cm/s. CC(=O)N1CCC[C@H]1C(=O)N(C)[C@@H](CC(C)C)C(=O)N[C@@H]1C(=O)N[C@@H](CC(C)C)C(=O)N(C)[C@@H](CC(C)C)C(=O)N(C)[C@H](CC(C)C)C(=O)N[C@@H](C)C(=O)N[C@@H](CC(C)C)C(=O)N2CCC[C@H]2C(=O)O[C@@H]1C is reported with PAMPA 0.28 × 10^-6 cm/s.

CC(=O)N1CCC[C@H]1C(=O)N(C)[C@@H](CC(C)C)C(=O)N[C@@H]1C(=O)N[C@H](CC(C)C)C(=O)N[C@H](CC(C)C)C(=O)N(C)[C@H](CC(C)C)C(=O)N[C@@H](C)C(=O)N[C@H](CC(C)C)C(=O)N2CCC[C@H]2C(=O)O[C@@H]1C is reported with PAMPA 3.2 × 10^-6 cm/s.

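Conditions beyond the assay type are not listed; see the original paper. The list need not hold all peptides of the study. Peptides that the database sets to -10, its floor, are left out.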